Molecular target: Bim_R3bS (UniProt O43521)
Assay: fluorescence polarisation

By UniProt entry, the sequences of proteins in these tests, tags left out. Where a name states a change or a piece, a line headed by the entry shows the natural chain unless it says otherwise.
UniProt O43521: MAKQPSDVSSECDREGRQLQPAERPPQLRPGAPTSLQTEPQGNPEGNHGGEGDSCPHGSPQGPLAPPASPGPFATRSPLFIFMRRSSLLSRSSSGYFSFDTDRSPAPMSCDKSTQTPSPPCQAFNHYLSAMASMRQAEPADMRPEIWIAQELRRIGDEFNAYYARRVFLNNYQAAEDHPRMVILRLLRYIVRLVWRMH

“M11 (murine gamma herpesvirus γHV68 Bcl-2 homolog), BAP- and His6-tagged (from UniProt P89884 1-171) (natural protein)” gave a Kd of 210 nM.

Reference: PMC4520770
